Experimental data: article PMC11859074, “Exploring the Anticancer Potential of NO-Donor Oxadiazole Assemblies Against Malignant Pleural Mesothelioma” (Pharmaceutics, 2025)

Assay: NO release assay (Griess assay, phosphate buffer with L-cysteine)

N#Cc1c(C(N)=NO)no[n+]1[O-]
NO Released (%) 1 h (% NO2− (μmol/μmol) relative to initial concentration (100 μM), L-cysteine, phosphate buffer pH 7.4, 37 °C, 1 h): 70 ± 5% | NO Released (%) 24 h (% NO2− (μmol/μmol) relative to initial concentration (100 μM), L-cysteine, phosphate buffer pH 7.4, 24 h): 81 ± 4% | NO Released (%) 48 h (% NO2− (μmol/μmol) relative to initial concentration (100 μM), L-cysteine, phosphate buffer pH 7.4, 48 h): 84 ± 10% | Fold Change 24 h/1 h (ratio of NO released at 24 h to 1 h): 1.2 | Fold Change 48 h/1 h (ratio of NO released at 48 h to 1 h): 1.2 | Fold Change 48 h/24 h (ratio of NO released at 48 h to 24 h): 1.0
